Results published in ChEMBL document CHEMBL1136571, “Design, synthesis and structure-activity relationships of benzoxazinone-based factor Xa inhibitors” (Bioorg Med Chem Lett, 2003).

Chains of the proteins cited; added tags and fusions are not shown. Residues count along the entry.
UniProt P00742, 41-179 limits assumed: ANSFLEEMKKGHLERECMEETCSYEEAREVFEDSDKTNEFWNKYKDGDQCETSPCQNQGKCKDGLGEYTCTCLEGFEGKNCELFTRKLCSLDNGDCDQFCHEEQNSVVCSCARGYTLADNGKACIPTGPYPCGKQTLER
UniProt P00742, 235-488 limits assumed: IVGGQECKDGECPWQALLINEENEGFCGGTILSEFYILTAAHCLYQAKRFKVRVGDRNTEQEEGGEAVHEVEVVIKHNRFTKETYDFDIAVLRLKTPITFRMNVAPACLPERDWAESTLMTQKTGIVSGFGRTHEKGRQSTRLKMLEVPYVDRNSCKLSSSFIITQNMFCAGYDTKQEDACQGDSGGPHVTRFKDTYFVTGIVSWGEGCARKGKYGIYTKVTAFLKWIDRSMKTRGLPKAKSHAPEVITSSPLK

Target: Coagulation factor X (Homo sapiens, UniProt P00742)
Test: Inhibitory concentration to factor Xa

IC50: 6.92 µM
Structure (SMILES): CC(=N)N1CCC(Oc2ccc(N(Cc3cc(C)nn3-c3cccc(C(=N)N)c3)S(C)(=O)=O)cc2)CC1
